Our source for the activity change, negative = inhibition values is PubChem BioAssay AID651768 (National Center for Advancing Translational Sciences (NCATS), 2012).

Sequences of proteins named here, by UniProt entry; tags and fusion partners are left off.
UniProt Q14191, whole entry: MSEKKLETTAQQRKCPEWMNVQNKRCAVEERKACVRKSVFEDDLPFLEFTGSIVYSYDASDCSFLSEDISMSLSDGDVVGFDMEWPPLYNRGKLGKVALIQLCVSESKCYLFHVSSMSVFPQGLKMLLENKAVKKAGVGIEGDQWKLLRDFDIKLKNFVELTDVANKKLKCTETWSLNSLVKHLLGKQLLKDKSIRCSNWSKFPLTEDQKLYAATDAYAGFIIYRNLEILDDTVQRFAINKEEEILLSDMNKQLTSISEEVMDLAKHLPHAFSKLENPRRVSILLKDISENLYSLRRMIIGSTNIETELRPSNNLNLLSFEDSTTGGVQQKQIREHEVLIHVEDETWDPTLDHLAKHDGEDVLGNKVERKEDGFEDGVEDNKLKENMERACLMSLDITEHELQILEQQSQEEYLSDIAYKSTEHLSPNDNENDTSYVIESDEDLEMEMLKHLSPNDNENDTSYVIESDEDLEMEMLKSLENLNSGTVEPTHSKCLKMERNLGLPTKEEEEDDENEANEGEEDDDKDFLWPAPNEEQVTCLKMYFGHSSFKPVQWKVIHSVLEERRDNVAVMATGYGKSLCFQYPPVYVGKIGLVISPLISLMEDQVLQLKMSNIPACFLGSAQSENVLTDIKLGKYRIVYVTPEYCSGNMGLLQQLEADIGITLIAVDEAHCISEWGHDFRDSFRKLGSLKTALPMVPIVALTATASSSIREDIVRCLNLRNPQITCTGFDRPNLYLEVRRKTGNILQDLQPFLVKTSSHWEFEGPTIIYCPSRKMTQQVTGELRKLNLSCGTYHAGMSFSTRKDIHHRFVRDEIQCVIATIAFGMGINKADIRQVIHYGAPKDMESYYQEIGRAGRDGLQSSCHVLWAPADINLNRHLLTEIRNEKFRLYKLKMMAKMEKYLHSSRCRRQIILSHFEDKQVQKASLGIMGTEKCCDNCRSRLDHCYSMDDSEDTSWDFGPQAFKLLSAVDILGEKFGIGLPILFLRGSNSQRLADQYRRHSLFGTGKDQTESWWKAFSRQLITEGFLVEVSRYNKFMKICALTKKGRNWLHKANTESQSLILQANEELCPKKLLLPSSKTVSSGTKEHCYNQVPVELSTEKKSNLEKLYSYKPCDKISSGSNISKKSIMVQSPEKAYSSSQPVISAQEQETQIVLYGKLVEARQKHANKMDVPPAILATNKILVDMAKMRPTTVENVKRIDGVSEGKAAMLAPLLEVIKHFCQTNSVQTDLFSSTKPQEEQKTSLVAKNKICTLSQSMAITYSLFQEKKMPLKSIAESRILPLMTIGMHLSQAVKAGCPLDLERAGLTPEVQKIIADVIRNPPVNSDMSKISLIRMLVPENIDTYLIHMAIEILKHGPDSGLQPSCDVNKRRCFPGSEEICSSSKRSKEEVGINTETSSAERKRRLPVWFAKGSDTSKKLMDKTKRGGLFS

The list shows a part of the results, in another mix than the full data. Some of these compounds have results that are not shown, active ones among them. Active and inactive are the calls of the source. Calls follow the shape of the dose curve; as a rule, active = well fitted inhibition curve with a large enough effect; inconclusive = small, poorly fitted or top-dose-only effect; inactive = no such curve, though single readings can be large or run the other way.
% is scaled to controls: 0 for no effect and ±100 for the full control effect.

The target in this experiment is Bifunctional 3'-5' exonuclease/ATP-dependent helicase WRN (Homo sapiens) (UniProt Q14191). Kind of experiment: qHTS for Inhibitors of WRN Helicase. Also: nearly all actives have a fitted effect of over 55% in size. The note with it: WRN helicase unwinding, fluorescent forked duplex, kinetic; at 114 µM (top of the series). From the text: Inhibition of DNA repair is proposed as a strategy for combating cancer. Synthetic lethality is an approach that exploits preexisting DNA repair deficiencies in certain tumors to develop inhibitors of DNA repair pathways that compensate for the tumor-associated DNA repair deficiency. Because helicases play critical roles in the DNA damage response and in DNA repair, particularly in actively dividing and replicating cells, characterization of synthetic lethal relationships of DNA helicases may be of value in developing improved anticancer treatment strategies; moreover, small molecules that specifically target a given DNA helicase may be useful for understanding its role in cellular nucleic acid metabolism. The goal of this project is to identify small molecule, non-covalent chemical inhibitors of the Werner syndrome (WS) helicase (WRN), which plays an important role in cell proliferation, the replication stress response, and DNA repair. […] The WRN gene product that is defective in the chromosomal instability disorder has DNA helicase and exonuclease activities and interacts with a number of nuclear proteins to maintain genomic stability. We will employ an optimized high-throughput screening assay that utilizes a fluorescence intensity modulation scheme with a fluorophore and quencher positioned near one another within a duplex deoxyoligonucleotide that contains a single forked structure. After a high-throughput screen of the ~350,000-member Molecular Libraries Small Molecule Repository (MLSMR) collection, followed by data analysis and hit selection, a panel of confirmatory, as well as secondary and ternary, assays will be employed to identify high-confidence WRN inhibitors. Structure-activity relationships will be investigated for the top candidate inhibitor series through medchem expansion. These are the results of the primary screening campaign against the MLSMR. NIH Chemical Genomics Center [NCGC] NIH Molecular Libraries Probe Centers Network [MLPCN] MLPCN Grant: MH096530 Assay Submitter (PI): Robert Brosh, National Institute of Aging
Three muL of reagents (buffer in columns 3 and 4 as negative controls; WRN at 20 nM final concentration in columns 1 and 2 as positive controls; columns 5-48 as test reactions) will be dispensed into a 1536-well Greiner black plate via solenoid-valve based nanoliter dispensers. Compounds (23 nL each in columns 5-48) and control (23 nL each in column 2 as dose-response) will be transferred via a Kalypsys pintool equipped with a 1536-pin array. Plates will be incubated for 15 min at room temperature, and then 1 µL of substrate (100 nM forked duplex oligonucleotide and 2 mM ATP final concentrations) will be added to start reaction, and plate will be transferred into a ViewLux high-throughput CCD imager where reaction progress is measured in kinetic mode using standard red-fluorescence optics (excitation filter 525 nm, emission filter 598 nm).
For orientation: Quantitative high-throughput screening tests each substance at several concentrations.
Consider `COc1cc(C(=O)NCC2(N(C)C)CCCCC2)c([N+](=O)[O-])cc1OC`, for which the activity change, negative = inhibition was inactive: -0.768%.

As for `CN(C)C1(CNC(=O)c2ccc(Br)cc2)CCCCC1`, the activity change, negative = inhibition was inactive: 15.3%.

`O=C(NCC1(N2CCCCC2)CCCCC1)c1cccc(Cl)c1`: the activity change, negative = inhibition was inactive: -9.85%.

On to `COc1cccc(C(=O)NCC2(N3CCCCC3)CCCCC2)c1`, for which the activity change, negative = inhibition is inactive: -1.18%.

On to `COc1ccc(Cl)cc1C(=O)NCC1(N(C)C)CCCCC1`, for which the activity change, negative = inhibition is inactive: 7.66%.

Turning to `O=C(OC1CN2CCC1CC2)C(CO)(c1ccccc1)c1ccccc1` (stereo not given), the activity change, negative = inhibition is inactive: -5.96%.

For `CC(C)Oc1ccc(C(=O)NCC2(N(C)C)CCCCC2)cc1`, the activity change, negative = inhibition is inactive: 1.63%.

Consider `O=C(OCCN1CCCC1)C(O)(c1ccccc1)c1ccccc1`, for which the activity change, negative = inhibition is inactive: -18.2%.

For the compound `CN(C)c1cccc(C(=O)NCC2(N(C)C)CCCCC2)c1`, the activity change, negative = inhibition was inactive: 5.55%.

As for `C=C(C)C#CC(O)(C(=O)OC1CCN(C)CC1)c1ccccc1` (stereo not given), the activity change, negative = inhibition is inactive: 2.14%.

Take `COc1ccc(Br)c(C(=O)NCC2(N3CCCCC3)CCCCC2)c1`: the activity change, negative = inhibition was inactive: -0.681%.

For `CN1[C@@H]2CC[C@H]1CC(OC(=O)C(O)(c1ccccc1)c1ccccc1)C2` (stereo not given in full), the activity change, negative = inhibition was inactive: 0.8%.

As to `O=C(NCC1(N2CCCCC2)CCCCC1)c1cc([N+](=O)[O-])ccc1Cl`, the activity change, negative = inhibition is inactive: 6.27%.

In the case of `CCN(CC)CC(C)C(C)OC(=O)C(O)(c1ccccc1)c1ccccc1` (stereo not given), the activity change, negative = inhibition was inactive: -3.94%.

Regarding `COc1cc(SC)ccc1C(=O)NCC1(N(C)C)CCCCC1`, the activity change, negative = inhibition is inactive: 0.134%.

On to `CC(C)N1C(=O)CC2(CCN(CCOC(=O)C(O)(c3ccccc3)c3ccccc3)CC2)C1=O`, for which the activity change, negative = inhibition is inactive: -2.24%.

For `Cc1ccccc1C(=O)NCC1(N2CCCCC2)CCCCC1`, the activity change, negative = inhibition is inactive: 1.49%.

For the compound `CN(C)c1ccc(C(=O)NCC2(N(C)C)CCCCC2)cc1`, the activity change, negative = inhibition is inactive: -6.35%.

As to `CN(C)C1CCCC1OC(=O)C(O)(c1ccccc1)c1ccccc1` (stereo not given), the activity change, negative = inhibition is inactive: -6.16%.

With `COc1ccc(C(=O)NCC2(N(C)C)CCCCC2)cc1`, the activity change, negative = inhibition was inactive: 2.61%.

`CCN1CCCC(OC(=O)C2(O)c3ccccc3C=Cc3ccccc32)C1` (stereo not given): the activity change, negative = inhibition was inactive: -5.21%.

Regarding `Cc1cc(C(=O)NCC2(N3CCCCC3)CCCCC2)ccc1[N+](=O)[O-]`, the activity change, negative = inhibition is inactive: 10.5%.

With `O=C(NCC1(N2CCCCC2)CCCCC1)c1cccc(Br)c1`, the activity change, negative = inhibition is inactive: -9.36%.

For the compound `C=CCN1CCN(CCOC(=O)C(O)(c2ccccc2)c2ccccc2)CC1`, the activity change, negative = inhibition was inactive: 9.51%.

`O=C(NCC1(N2CCCCC2)CCCCC1)c1cc(F)c(F)cc1Cl`: the activity change, negative = inhibition is inactive: 0.0808%.
